Measured values taken from patent publication US20020103123A1.

Amino acid sequences for entries named in this document (tags omitted).
UniProt P49146, whole entry: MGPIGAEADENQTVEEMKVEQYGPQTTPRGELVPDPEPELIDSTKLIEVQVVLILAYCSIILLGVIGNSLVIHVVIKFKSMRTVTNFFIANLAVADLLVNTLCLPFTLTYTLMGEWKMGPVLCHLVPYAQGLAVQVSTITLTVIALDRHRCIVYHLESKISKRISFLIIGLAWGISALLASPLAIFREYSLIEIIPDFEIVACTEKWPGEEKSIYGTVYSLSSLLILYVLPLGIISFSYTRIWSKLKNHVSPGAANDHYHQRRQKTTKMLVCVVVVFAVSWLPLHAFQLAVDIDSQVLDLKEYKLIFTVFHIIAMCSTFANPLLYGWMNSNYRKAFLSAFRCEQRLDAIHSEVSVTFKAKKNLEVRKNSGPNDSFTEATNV

Biological target: human Y2 receptor (human) (UniProt P49146)
Test: 125I-PYY displacement, COS-7 membranes

Ki: 0.74 nM
Substance: rat/human NPY, P01303 (peptide; carboxy terminal amide; other documents disagree on this pair)
